Here are results for 21 compounds from PubChem BioAssay AID1222 (Sanford-Burnham Center for Chemical Genomics, 2008).

The other results are listed elsewhere or left out. Measured potencies and affinities stand elsewhere. Activity calls are given as the source filed them.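 Rule for the calls: active = EC50 below 50 µM in the dose-response confirmation; inactive = the rest.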

This experiment in a line: rescue of cells from ER stress-induced death, primary screen, 384-well, CSM14.1, thapsigargin, ATP luminescence (AID 1222).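 Note: death triggered by thapsigargin at about 15 µM added after 2 h compound pretreatment; cell ATP read after overnight thapsigargin exposure of roughly 18 to 22 hours; reference of the scale not given here.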 Particulars: CSM14.1 thapsigargin-induced death rescue, at 20 µM, stronger effect = higher value.
On to `O=C(NCC1(N2CCOCC2)CCCCC1)c1cc(=O)[nH]c2ccccc12`, for which the cellular ATP content (survival) is inactive: -0.9%.

Consider `CN1CCN(CCOC(=O)C(O)(c2ccccc2)c2ccccc2)CC1`, for which the cellular ATP content (survival) was inactive: 23.7%.

Consider `N#CC1(Nc2ccccc2)CCN(CCc2ccccc2)CC1`, for which the cellular ATP content (survival) was inactive: -0.5%.

Take `COc1ccc(CN(CCCl)CCCl)cc1Cl`: the cellular ATP content (survival) was inactive: 3.6%.

Regarding `CN(C)c1cccc(C(=O)NCC2(N3CCCCC3)CCCCC2)c1`, the cellular ATP content (survival) was inactive: -0.1%.

As to `O=C(OC1CN2CCC1CC2)C1c2ccccc2Oc2ccccc21` (stereo unspecified), the cellular ATP content (survival) is inactive: -3.4%.

As to `CCOC(=O)N1CCC(Nc2ccc(OC)cc2)CC1`, the cellular ATP content (survival) was inactive: 2.6%.

As for `O=C(NCC1(N2CCOCC2)CCCCC1)c1cc2ccccc2o1`, the cellular ATP content (survival) is inactive: 0.4%.

On to `COc1ccc(C(=O)NCC2(N3CCCCC3)CCCCC2)c(OC)c1OC`, for which the cellular ATP content (survival) is inactive: -1.2%.

For `COc1ccc(NC2CCN(CCc3ccccc3)CC2)c(OC)c1`, the cellular ATP content (survival) is inactive: 0.8%.

With `CN(C)c1ccc(C(=O)NCC2(N3CCCCC3)CCCCC2)cc1`, the cellular ATP content (survival) is inactive: -0.7%.

For `CCN1CCC(Nc2cccc(F)c2)CC1`, the cellular ATP content (survival) was inactive: -0.9%.

With `Fc1ccccc1NC1CCN(Cc2ccccc2)CC1`, the cellular ATP content (survival) was inactive: -2%.

For `COc1cc(OC)cc(C(=O)NCC2(N3CCOCC3)CCCCC2)c1`, the cellular ATP content (survival) is inactive: 0.3%.

In the case of `CCC(CO)(C(=O)OC1CN2CCC1CC2)c1ccccc1` (stereo unspecified), the cellular ATP content (survival) was inactive: 2%.

Consider `CCOc1ncccc1C(=O)NCC1(N2CCOCC2)CCCCC1`, for which the cellular ATP content (survival) is inactive: -3.5%.

With `O=C(OC1CN2CCC1CC2)C1c2ccccc2C=Cc2ccccc21` (stereo unspecified), the cellular ATP content (survival) was inactive: 0%.

As for `N/C(=N\O)c1c(N)no[n+]1[O-]`, the cellular ATP content (survival) is inactive: 1%.

`COc1ccc(C(=O)NCC2(N3CCOCC3)CCCCC2)cc1OC`: the cellular ATP content (survival) was inactive: -0.9%.

For the compound `c1ccc(CN2CCC(Nc3ccccc3)CC2)cc1`, the cellular ATP content (survival) is inactive: -0.7%.

`N#Cc1ccc(C(=O)NCC2(N3CCCCC3)CCCCC2)cc1`: the cellular ATP content (survival) was inactive: -0.5%.
